The data set relates to L-NAME-treated male Wistar rats. Put plainly: L-NAME-induced hypertension/cardiac fibrosis in rats: intake, growth, tail-cuff blood pressure, organ weights. The protocol:
Male Wistar rats (8 weeks old) were obtained from the Central Animal Breeding House of The University of Queensland.
This agent was administered at a dosage of 1 mg/kg/day orally for 4 days before rats were additionally treated with nitro-L-arginine methyl ester (L-NAME) for 4 weeks, i.e. a total duration of treatment of antagonist of 32 days. L-NAME administration produces hypertension and cardiac remodelling as a result of inhibition of the production of nitric oxide (NO).
L-NAME was administered at a concentration of 400 mg/l in the drinking water for 4 weeks to give a mean daily intake of 18.7±0.4 mg L-NAME (41.4±0.8 mg/kg mean body weight). Body weight and food and water intakes were measured daily.
Systolic blood pressure was measured in selected unanaesthetised rats, using a tail-cuff method.

As for AcF-[OPdChaWR] [PMX53], the “water intake or growth rate” value (PMX53 1 mg/kg/day orally 32 days, L-NAME 400 mg/l in drinking water 4 weeks) is “Neither L-NAME nor C5a receptor antagonist treatment altered”. The “wet weights of the remaining major organs” value (control and L-NAME rats) was “did not significantly alter”.

The values above are taken from patent publication US7919459B2, “Use of C5a receptor antagonist in the treatment of fibrosis” (Promics Pty Limited, priority 2002, dated 2011).
